Reference: US20070082856A1, “Combination therapy comprising the use of et-743 and doxorubicin for treating cancer” (Pharma Mar, S.A.U., priority 2003, published 2007)

Experiment: Phase I clinical trial (Example 2): safety profile and DLT of ET-743 days 1 and 8 with doxorubicin day 1
Details: ET-743 3-hr infusion days 1 and 8 with Doxo 50 mg/m^2 day 1, every 21 days

## COc1cc2c(cc1O)CCN[C@]21CS[C@@H]2c3c(OC(C)=O)c(C)c4c(c3[C@H](COC1=O)N1[C@@H]2[C@H]2c3c(cc(C)c(OC)c3O)C[C@@H]([C@@H]1O)N2C)OCO4 [ET-743, ecteinascidin 743]
  MTD, ET-743 part: 700 μg/m^2
